Each structure is given as a SMILES string. This is a selection; strong and weak results do not stand in their true shares. Some of these compounds have results that are not shown, active ones among them. Active and inactive are the calls of the source.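 The calls were made as follows: active = inhibition above 30.3% in the primary screen of four-compound pools, then above 30% when the compound was retested; inconclusive = passed the primary limit but could not be retested; inactive = the rest.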

A short description of this assay: clotrimazole potentiators killing C. albicans biofilm, primary screen, 4-compound mixtures (AID 1242).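 Also: compounds exposed to preformed 24 h biofilms for 48 h; 0% = untreated biofilm control and 100% = clotrimazole plus chlorhexidine kill blank.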 Particulars: C. albicans biofilm persisters + clotrimazole, fluorescence viability; primary screen in compound mixtures of four per well; at 7.6 µM; active compounds read high. In short, it runs like this: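 Probe or stimulus – Clotrimazole 50 µg/mL co-treatment · System – C. albicans biofilms · Schedule – 24 h biofilm formation, then 48 h compound exposure, 37 °C · Evaluation – percent inhibition of biofilm viability · Technique – 2-h Alamar Blue fluorescence, 535/590 nm excitation/emission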
With `COc1cccc(C(=O)NCC2(N3CCCCC3)CCCCC2)c1`, the inhibition (in general, the relative decrease from the control value, in per cent) is inactive: 10.2%.

For `COc1ccc(Br)c(C(=O)NCC2(N3CCCCC3)CCCCC2)c1`, the inhibition was inactive: 10.1%.

Turning to `O=C(NCC1(N2CCCCC2)CCCCC1)c1cc([N+](=O)[O-])ccc1Cl`, the inhibition was inactive: 6.95%.

In the case of `CCN(CC)CC(C)C(C)OC(=O)C(O)(c1ccccc1)c1ccccc1` (stereo not drawn), the inhibition is inactive: 19.6%.

On to `Cc1ccccc1C(=O)NCC1(N2CCCCC2)CCCCC1`, for which the inhibition is inactive: 13.5%.

In the case of `CN(C)C1CCCC1OC(=O)C(O)(c1ccccc1)c1ccccc1` (stereo not drawn), the inhibition is inactive: 9.03%.

On to `C=CCN1CCN(CCOC(=O)C(O)(c2ccccc2)c2ccccc2)CC1`, for which the inhibition is inactive: 18.9%.

As to `CCN1CCCC(OC(=O)C2(O)c3ccccc3C=Cc3ccccc32)C1` (stereo not drawn), the inhibition was inactive: -10.7%.

(Values after PubChem BioAssay AID1242 (PCMD, 2008).)
